Results as given in patent US20040259244A1, “Methods, compositions, and growth and differentiation factors for insulin-producing cells” (priority 2002, published 2004).

Test system: conversion of stem cells into insulin producing cells
Assay type: cell-based
Conditions: statistical analysis of insulin content of supernatants, 3 donors, combinatorial array in alginate

B1: BMP-2: Bone Morphogenic Protein (protein, UniProt P12643 283-396, looked up)
Bone morphogenetic protein 2: QAKHKQRKRLKSSCKRHPLYVDFSDVGWNDWIVAPPGYHAFYCHGECPFPLADHLNSTNHAIVQTLVNSVNSKIPKACCVPTELSAISMLYLDENEKVVLKNYQDMVVEGCGCR
effect on the conversion of stem cells into insulin producing cells: potential positive effect
